From patent publication US6509163B1, “Methods of screening modulators of mammalian P2X7 purinergic receptors” (Glaxo Group Limited, priority 1997, dated 2003) come the findings set out here.

Chains of the proteins cited; added tags and fusions are not shown. Lines headed by an entry give the natural chain unless they say otherwise; changes in a name come on top.
UniProt Q99572: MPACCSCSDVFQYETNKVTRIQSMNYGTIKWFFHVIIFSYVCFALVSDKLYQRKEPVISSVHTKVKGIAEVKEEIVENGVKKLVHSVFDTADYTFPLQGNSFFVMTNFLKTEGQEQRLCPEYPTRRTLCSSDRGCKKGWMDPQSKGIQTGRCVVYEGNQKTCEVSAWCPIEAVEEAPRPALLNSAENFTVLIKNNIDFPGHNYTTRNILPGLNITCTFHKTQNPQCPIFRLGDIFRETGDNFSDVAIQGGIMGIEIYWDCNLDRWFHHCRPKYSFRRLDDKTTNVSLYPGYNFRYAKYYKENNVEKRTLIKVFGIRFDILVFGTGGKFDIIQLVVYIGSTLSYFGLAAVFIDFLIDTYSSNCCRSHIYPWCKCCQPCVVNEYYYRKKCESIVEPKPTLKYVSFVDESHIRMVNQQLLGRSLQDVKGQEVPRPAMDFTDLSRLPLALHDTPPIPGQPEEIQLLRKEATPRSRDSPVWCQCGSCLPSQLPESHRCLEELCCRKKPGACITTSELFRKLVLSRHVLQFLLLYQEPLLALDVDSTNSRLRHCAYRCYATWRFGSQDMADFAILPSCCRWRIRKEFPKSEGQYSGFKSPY

The target of this experiment is T1, hP2X7 receptor (Homo sapiens, UniProt Q99572).
T1 construct: a clone containing the complete open reading frame of the hP2X7 receptor was constructed; expressed in transfected cells; host or cells: HEK293 (transient), pcDNA3
The experiment in a line: Whole-cell recordings in HEK293 cells transiently transfected with hP2X7 receptors (Example 3). In kind it is cell-based. The following applies: vs 300 μM BzATP, n=4; read-out: concentration causing half-maximal inhibition of currents. As to the method:
Cell culture. HEK293 cells were transiently transfected with cDNA (1 μg/ml) and lipofectin dissolved in Optimem (GIBCO) placed into petri dishes containing four coverslips onto which cells were plated at a density of about 8×10^4/coverslip. Cells were washed 5 h later and normal DMEM applied. Electrophysiological studies or dye uptake measurements were carried out 18-49 h later. For each set of transfections, parallel experiments were performed on HEK cells transfected with cDNA encoding both rP2X7 and hP2X7 receptors.
Electrophysiological experiments. Whole-cell recordings were made using the EPC9 patch-clamp amplifier and Pulse acquisition programs (HEKA, Lambrecht, Germany). Patch pipettes (5-7 MΩ) contained (mM) CsCl or NaCl 154, EGTA 10, HEPES 5. The normal extracellular solution contained (mM) NaCg 147, KCl2, CaCl2 2, MgCl2 1, HEPES 10 and glucose 12, and the “low divalent” solution had no magnesium and 0.3 mM CaCl2. Agonists were delivered by U-tube delivery system; antagonists, when applied, were present in both superfusion and U-tube. Experiments were carried out at room temperature.

In the case of `Cc1nc(N=Nc2ccc(S(=O)(=O)O)cc2S(=O)(=O)O)c(COP(=O)(O)O)c(C=O)c1O` [PPADS, pyridoxal 5-phosphate-6-azophenyl 2′4′-disulfonic acid], the IC50 stood at 62 ± 4 µM.
